Values of other authors in patent US10329542B2, “HBV RNAse H purification and enzyme inhibitors” (Saint Louis University, priority 2012, dated 2019).

System: HBV
Conditions: human, in vivo; cited from earlier work

Interferon α: FDA approved drug to treat chronic HBV
Patients with sustained clinical improvement: 20-30%
